# Assay results from patent publication US20240409594A1, “PHOTOA[…] CHANNEL MODULATOR” (INSTITUT NATIONAL DE LA SANTÉ ET DE LA RECHERCHE MÉDICALE, priority 2021, published 2024).
# Sequences of proteins named here, by UniProt entry; tags and fusion partners are left off.
# UniProt P35499, whole entry: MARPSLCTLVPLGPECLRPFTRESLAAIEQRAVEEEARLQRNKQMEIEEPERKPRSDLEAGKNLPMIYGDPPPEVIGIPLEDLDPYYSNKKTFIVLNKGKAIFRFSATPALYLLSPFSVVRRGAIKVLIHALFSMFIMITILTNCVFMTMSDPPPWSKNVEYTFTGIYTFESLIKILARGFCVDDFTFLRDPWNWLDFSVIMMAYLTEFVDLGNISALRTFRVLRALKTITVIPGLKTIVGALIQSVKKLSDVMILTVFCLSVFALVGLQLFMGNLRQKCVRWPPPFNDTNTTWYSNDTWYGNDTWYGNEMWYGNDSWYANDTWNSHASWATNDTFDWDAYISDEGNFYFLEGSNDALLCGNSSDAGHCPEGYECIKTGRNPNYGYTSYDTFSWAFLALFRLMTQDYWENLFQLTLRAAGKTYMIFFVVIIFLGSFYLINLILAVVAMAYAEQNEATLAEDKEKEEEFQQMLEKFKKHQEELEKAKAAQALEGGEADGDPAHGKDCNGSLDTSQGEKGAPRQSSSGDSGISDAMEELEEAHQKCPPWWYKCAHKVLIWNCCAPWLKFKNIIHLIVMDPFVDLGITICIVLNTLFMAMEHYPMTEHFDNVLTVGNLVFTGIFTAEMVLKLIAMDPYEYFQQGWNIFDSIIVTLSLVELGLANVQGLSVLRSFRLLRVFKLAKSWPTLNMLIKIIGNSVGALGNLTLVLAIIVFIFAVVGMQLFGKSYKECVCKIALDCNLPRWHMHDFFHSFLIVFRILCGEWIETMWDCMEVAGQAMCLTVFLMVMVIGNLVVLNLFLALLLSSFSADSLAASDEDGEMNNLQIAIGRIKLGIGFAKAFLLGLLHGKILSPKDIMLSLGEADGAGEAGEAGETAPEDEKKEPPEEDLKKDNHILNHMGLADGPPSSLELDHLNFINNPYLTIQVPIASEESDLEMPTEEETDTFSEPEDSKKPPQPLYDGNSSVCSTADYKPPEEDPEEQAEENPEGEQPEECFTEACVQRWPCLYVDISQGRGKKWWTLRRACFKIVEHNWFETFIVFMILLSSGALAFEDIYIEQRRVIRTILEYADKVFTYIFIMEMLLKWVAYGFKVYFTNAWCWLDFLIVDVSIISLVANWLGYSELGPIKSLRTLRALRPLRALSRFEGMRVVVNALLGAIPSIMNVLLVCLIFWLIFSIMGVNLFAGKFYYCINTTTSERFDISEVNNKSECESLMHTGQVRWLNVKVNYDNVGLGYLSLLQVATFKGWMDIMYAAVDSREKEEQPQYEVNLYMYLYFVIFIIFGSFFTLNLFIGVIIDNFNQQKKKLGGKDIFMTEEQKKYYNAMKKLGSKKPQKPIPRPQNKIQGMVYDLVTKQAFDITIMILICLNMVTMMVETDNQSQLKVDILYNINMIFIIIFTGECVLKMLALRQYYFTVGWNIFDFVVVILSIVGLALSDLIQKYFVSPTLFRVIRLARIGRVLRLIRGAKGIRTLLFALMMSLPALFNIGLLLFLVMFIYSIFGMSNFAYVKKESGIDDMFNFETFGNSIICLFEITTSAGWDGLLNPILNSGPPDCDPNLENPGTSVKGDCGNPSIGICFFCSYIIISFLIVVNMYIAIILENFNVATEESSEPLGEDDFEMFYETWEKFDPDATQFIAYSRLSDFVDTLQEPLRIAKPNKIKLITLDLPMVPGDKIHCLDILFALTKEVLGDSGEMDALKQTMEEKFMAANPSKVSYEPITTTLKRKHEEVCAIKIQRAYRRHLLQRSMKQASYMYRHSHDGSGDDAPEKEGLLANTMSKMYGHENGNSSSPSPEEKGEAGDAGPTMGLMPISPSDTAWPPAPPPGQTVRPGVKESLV
# Columns and labels:
# hNaV1.4 = target: T1, hNaV1.4 (Homo sapiens, UniProt P35499); assay: Automated patch-clamp, hNaV1.4 current inhibition; format: cell-based; details: caged JzTxV versus non-caged JzTxV
# T1 construct: expressed in transfected cells; host or cells: HEK293
# [1] = Dark stability in solution; format: physicochemical; details: in the dark
SMILES,"fold reduction in IC50, hNaV1.4 (hNaV1.4) [fold]",dark stability in solution [1] [week]
CC[C@H](C)[C@H](NC(=O)[C@@H](NC(=O)[C@H](CCCCN)NC(=O)[C@H](CCCNC(=N)N)NC(=O)[C@@H]1CSSC[C@@H]2NC(=O)[C@H](C)NC(=O)[C@H](CCCNC(=N)N)NC(=O)[C@H](CCCCN)NC(=O)[C@H](CO)NC(=O)[C@H](CC(=O)O)NC(=O)[C@@H]3CSSC[C@H](NC(=O)[C@H](CCCNC(=N)N)NC(=O)[C@H](CC(C)C)NC(=O)CNC(=O)[C@H](CCC(=O)O)NC(=O)[C@H](CSSC[C@H](NC(=O)[C@@H](N)Cc4ccc(O)cc4)C(=O)N[C@@H](CCC(N)=O)C(=O)N[C@@H](CCCCN)C(=O)N[C@@H](Cc4c[nH]c5ccccc45)C(=O)N[C@@H](CCSC)C(=O)N[C@@H](Cc4c[nH]c5ccccc45)C(=O)N[C@@H]([C@@H](C)O)C(=O)N3)NC2=O)C(=O)N[C@@H](CCCCNC(=O)OCc2cc(OC)c(OC)cc2[N+](=O)[O-])C(=O)N[C@@H](CC(C)C)C(=O)N[C@@H](Cc2c[nH]c3ccccc23)C(=O)N1)[C@@H](C)CC)C(N)=O [caged JzTxV],218,
CC[C@H](C)[C@@H]1NC(=O)CNC(=O)[C@H](CC(C)C)NC(=O)[C@@H](NC(=O)CN)CSSC[C@@H]2NC(=O)[C@@H]3CSSC[C@@H](C(=O)N[C@@H](CCCCNC(=O)OCc4cc(OC)c(OC)cc4[N+](=O)[O-])C(=O)N[C@@H](Cc4ccc(O)cc4)C(=O)N[C@@H](CCC(N)=O)C(=O)N[C@H](C(=O)N[C@@H](CCCCN)C(N)=O)[C@@H](C)CC)NC(=O)[C@H](Cc4c[nH]c5ccccc45)NC(=O)[C@H](CCCNC(=N)N)NC(=O)[C@H]([C@@H](C)O)NC(=O)[C@H](CCCCN)NC(=O)[C@H](CCCNC(=N)N)NC(=O)[C@H](CO)NC(=O)[C@H](CSSC[C@H](NC(=O)[C@H](C)NC(=O)[C@H](CCCCN)NC(=O)[C@H](Cc4ccccc4)NC1=O)C(=O)N[C@@H](CC(N)=O)C(=O)N1CCC[C@H]1C(=O)N[C@@H](CO)C(=O)N[C@@H](CC(N)=O)C(=O)N[C@@H](CC(=O)O)C(=O)N[C@@H](CCC(N)=O)C(=O)N3)NC(=O)[C@H](C(C)C)NC(=O)[C@H](CC(C)C)NC(=O)[C@H](CCCCN)NC(=O)[C@H](CO)NC(=O)[C@H](CO)NC(=O)[C@H](CCCCN)NC2=O [caged HwTxIV-Nvoc],,> 1
